# In patent US7087373B2, “Methods for determining plasma free drug concentration by direct measurement of binding affinity of protease inhibitors to plasma proteins” (priority 2001, dated 2006):
# How the values were obtained:
# HIV = assay: Cell-based anti-HIV assay (tetrazolium-based, Pauwels et al.) in the absence of AAG and in the presence of 1 mg/mL AAG; conditions: change in experimental EC50, absence of AAG vs presence of 1 mg/mL AAG
# Protocol: The values provided are the average of duplicate experiments. […] The standard free energies (ΔG^0) were obtained from the equation ΔG^0=−RT1nKa, in which the Ka is the binding constant at 37° C. The ΔS^0 function was calculated from the standard thermodynamic relation ΔG^0=ΔH^0−TΔS^0. […] Methods, 1988, 20(4), 309–21.
# [1] = tested on: AAG (human α1-acid glycoprotein); assay: Isothermal titration calorimetry (ITC) of PI binding to AAG
# Protocol: Briefly, the isothermal titration calorimetry (ITC) measurements are designed to obtain primarily the enthalpy of each complex formation and their stoichiometries. The heats of each reaction are determined by integration of the peaks observed. After the contribution from the heat of dilution of each injection is subtracted, the heat is plotted against the molar ratio of PIs to AAG. The binding constant (Ka), enthalpy of binding (ΔH^0), and stoichiometry (N) of the formation of complex are determined by fitting the binding isotherm against the binding equation using an independent binding model. Data analysis may be carried out with, for example, MicroCal ORIGN software, usually provided with the instrument.
# Binding experiments were run using Isothermal Titration Calorimetry (ITC) to measure bound and unbound protease inhibitors.
# Sample preparation: Solutions of AAG and its variants for ITC experiments were made up in 20 mM […] buffer, pH 7.4. All compounds were prepared as stock solution of 20 mM or 25 mM in DMSO and thereafter diluted to desired concentration in the same buffer. For all ITC experiments, the percentage of DMSO is below 1%. […]
# The values provided are the average of duplicate experiments. […] The ΔS^0 function was calculated from the standard thermodynamic relation ΔG^0=ΔH^0−TΔS^0.
smiles,measurement,setting,value
"CC(C)CN(C[C@@H](O)[C@H](Cc1ccccc1)NC(=O)O[C@H]1CCOC1)S(=O)(=O)c1ccc(N)cc1 [APV, amprenavir]",Fold Inc. EC50,HIV,23.7
same,"Ka (binding constant, curve fit)",[1]; 80 μM PI into 12 μM AAG,1.49(±0.20)×10^6 M^−1
same,Ka,"[1]; binding to AAG, 37° C., 20 mM phosphate buffer, pH 7.4, average of duplicate experiments",1.49 ± 0.20 10^6M^−1
